By UniProt entry, the sequences of proteins in these tests, tags left out.
UniProt P23458, whole entry, species assumed: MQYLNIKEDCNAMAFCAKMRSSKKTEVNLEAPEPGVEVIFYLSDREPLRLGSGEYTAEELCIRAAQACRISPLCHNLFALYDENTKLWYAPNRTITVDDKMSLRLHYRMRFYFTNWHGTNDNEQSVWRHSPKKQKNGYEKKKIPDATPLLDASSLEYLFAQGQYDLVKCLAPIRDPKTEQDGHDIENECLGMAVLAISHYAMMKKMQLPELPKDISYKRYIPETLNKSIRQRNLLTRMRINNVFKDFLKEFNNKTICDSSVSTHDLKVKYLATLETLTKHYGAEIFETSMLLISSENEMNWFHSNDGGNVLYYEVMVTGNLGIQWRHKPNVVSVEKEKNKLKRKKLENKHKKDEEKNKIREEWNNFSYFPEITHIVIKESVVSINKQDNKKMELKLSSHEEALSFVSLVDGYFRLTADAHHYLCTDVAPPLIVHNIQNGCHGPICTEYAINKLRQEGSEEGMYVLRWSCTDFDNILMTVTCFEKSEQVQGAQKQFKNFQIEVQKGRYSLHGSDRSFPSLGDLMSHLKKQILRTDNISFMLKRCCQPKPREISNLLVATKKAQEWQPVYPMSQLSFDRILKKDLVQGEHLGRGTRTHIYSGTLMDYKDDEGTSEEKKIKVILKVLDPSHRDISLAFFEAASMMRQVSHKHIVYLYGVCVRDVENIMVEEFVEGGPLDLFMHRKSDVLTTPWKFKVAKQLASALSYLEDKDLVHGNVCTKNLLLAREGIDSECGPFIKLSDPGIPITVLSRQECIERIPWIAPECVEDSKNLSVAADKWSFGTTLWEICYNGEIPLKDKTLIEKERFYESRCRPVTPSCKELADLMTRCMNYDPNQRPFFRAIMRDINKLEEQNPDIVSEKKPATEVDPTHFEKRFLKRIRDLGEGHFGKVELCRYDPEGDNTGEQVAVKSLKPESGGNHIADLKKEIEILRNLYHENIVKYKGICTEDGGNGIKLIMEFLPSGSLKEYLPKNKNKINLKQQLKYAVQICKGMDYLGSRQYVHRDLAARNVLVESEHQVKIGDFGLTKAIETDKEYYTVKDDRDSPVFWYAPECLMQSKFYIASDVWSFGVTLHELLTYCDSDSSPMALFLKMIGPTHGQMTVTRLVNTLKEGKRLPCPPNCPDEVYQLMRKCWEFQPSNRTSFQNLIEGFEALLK

In patent US10336759B2, “Salts and processes of preparing a PI3K inhibitor” (Incyte Corporation, priority 2015, dated 2019):

Biological target: JAK1 (Homo sapiens (Human), UniProt P23458)
Assay: Assay A, JAK1 IC50 at 1 mM ATP
Format: biochemical
Conditions: method of Assay A at 1 mM ATP; #3 data for enantiomer 1, #14 data for enantiomer 2

IC50: < 0.01 µM
Compound: CN(C)Cc1cc(F)cc(OC2CCN(CC(CC#N)n3cc(-c4ncnc5[nH]ccc45)cn3)CC2)c1 (single isomer, unassigned) [Example 14, 4-(4-{3-[(dimethylamino)methyl]-5-fluorophenoxy}piperidin-1-yl)-3-[4-(7H-pyrrolo[2,3-d]pyrimidin-4-yl)-1H-pyrazol-1-yl]butanenitrile]
